Test results taken from US7884117B2, “Carbonylamino pyrrolopyrazoles, potent kinase inhibitors” (Pfizer Inc., priority 2005, dated 2011).

Sequences of proteins named here, by UniProt entry; tags and fusion partners are left off. Residues count along the entry.
UniProt O96013, 321-572 limits assumed: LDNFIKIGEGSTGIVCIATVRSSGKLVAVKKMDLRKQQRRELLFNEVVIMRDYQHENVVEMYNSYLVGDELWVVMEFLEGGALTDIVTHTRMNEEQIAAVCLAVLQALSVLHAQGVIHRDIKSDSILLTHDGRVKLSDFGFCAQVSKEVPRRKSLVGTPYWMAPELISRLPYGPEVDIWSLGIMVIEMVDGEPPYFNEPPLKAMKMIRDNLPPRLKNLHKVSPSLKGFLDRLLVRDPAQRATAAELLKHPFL

How the values were obtained:
[1] = biological target: T1, PAK4 Kinase domain (PAK4 KD) (Homo sapiens, UniProt O96013); assay: PAK4 kinase domain enzymatic assay (PK/LDH-coupled, Ki); assay type: biochemical; details: Ki data
T1 construct: Cloning, expression, and purification of recombinant PAK4 Kinase domain (PAK4 KD); His tag (pET28a(+)/pET24a(+), Ni-NTA purification) (N, cleaved yes); GST (pGST4.5, glutathione column) (N, cleaved yes); made in house; host or cells: E. coli BL21(DE3)

[2] = biological target: T2, PAK4 kinase activity in whole cells (TR-293-KDG, modified HEK 293) (Homo sapiens, UniProt O96013); assay: PAK4 cellular assay: sandwich ELISA of PAK4-dependent phosphorylation of GEF-H1b in TR-293-KDG cells; assay type: cell-based
T2 construct: engineered to overexpress both GEF-H1b and the kinase domain (KD) of PAK4; expressed in transfected cells; host or cells: TR-293-KDG (modified HEK 293, Trex system, Invitrogen)

SMILES | Ki [1] [nM] | EC50 ([2]; EC50) [nM] | Ki ([1]; PAK4 Kinase Domain) [nM] | EC50 ([2]; PAK4 cellular assay, TR-293-KDG cells, 3-hour exposure, read-out: EC50) [nM]
CN(C)CC(OC(=O)N1Cc2c(NC(=O)c3ccccc3)n[nH]c2C1(C)C)c1ccccc1 (stereo not shown) [Example 21, 2-(dimethylamino)-1-phenylethyl 3-(benzoylamino)-6,6-dimethyl-4,6-dihydropyrrolo[3,4-c]pyrazole-5(1H)-carboxylate] | 24.8 | 37.6 | – | –
CN(C)C[C@@H](OC(=O)N1Cc2c(NC(=O)c3ccccc3)n[nH]c2C1(C)C)c1ccccc1 [Example 1, (1S)-2-(dimethylamino)-1-phenylethyl 3-(benzoylamino)-6,6-dimethyl-4,6-dihydropyrrolo[3,4-c]pyrazole-5(1H)-carboxylate] | – | – | 10.1 | 10.7

Like-named read-outs stand apart in the source and are kept apart here.
